What was measured:
EAC cells = assay: Antitumor effect of compound 1 and doxorubicin on EAC in C3H mice (Example 20); assay type: in vivo; details: dose 50 μg/mouse i.v. (doxorubicin equivalent, 2.5 mg/kg), days 2, 4, 6, day 9, listed as free doxorubicin
Method: A study of the anti-tumour effect of compound 1 as compared with doxorubicin was carried out in EAC, passed in C3H mice. 20-22 g males of C3H mice were used. Control and experimental groups included 7 animals, which were inoculated 5×10^6 EAC cells i.p. in volume 0.2 ml at day 0. On second, fourth and sixth days following inoculation the doses of 20, 50 and 100 μg/mouse of compound 1, equivalent ones of doxorubicin, in 200 μl of normal mice serum (NMS) were injected i.v. Three groups of animals were administrated water solutions of doxorubicin in doses^—of 1, 2.5 and 5 μg/kg of body weight (20, 50 and 100 μg/mouse by weight of 20 g accordingly). One group of mice was untreated control. Results of experiment were accounted on ninth day. Mice were killed by cervical dislocation. Ascitic fluids were removed, collected, their volumes were measured, and abdominal cavities were washed by saline solution 6-7 times. Thus obtained fluids were pooled. The number of viable tumor cells was counted by hemocytometer, using trypan blue exclusion test. The mean and the standard mean error was calculated for each group of mice. Comparison of tumor cell number in control and experimental groups was carried out using Student t-test. Influence of tested preparation on EAC growth inhibition was evaluated by: [formula]

EAC = details: doxorubicin dose 2.5 mg/kg i.v. in NMS, days 2, 4, 6; day 9

For COc1cccc2c1C(=O)c1c(O)c3c(c(O)c1C2=O)C[C@@](O)(C(=O)CO)C[C@@H]3O[C@H]1C[C@H](N)[C@H](O)[C@H](C)O1 [DXR, doxorubicin, reference compound], the “EAC growth inhibition, % to control” value (EAC cells) was 45% and the EAC growth inhibition (EAC) was 44.9%.

Reference: patent US6358936B2, “Compounds for the treatment of cancer” (Ardenia Investments, Ltd., priority 1998, dated 2002)
